From patent US11236047B2 (ASTEX THERAPEUTICS LIMITED, priority 2017, dated 2022)

Experiments:
Format in all cases: cell-based
Molm-13 AML cell line = assay: Combination protocol for proliferation in dose matrix (Alamar blue), Molm-13
Procedure: (§1) Combination Protocol for Proliferation in Dose Matrix
(§2) AML cell lines were seeded onto 96-well tissue culture plates in triplicates at a concentration of 1×10^4 cells/well. Cells were allowed to recover for 16-24 hours prior to adding SGI-110 at a range of concentrations (0.003-3 μM). Following 24 hr incubation with SGI-110, (2S,3S)-3-(4-chlorophenyl)-3-[(1R)-1-(4-chlorophenyl)-7-fluoro-5-[(1S)-1-hydroxy-1-(oxan-4-yl)propyl]-1-methoxy-3-oxo-2,3-dihydro-1H-isoindol-2-yl]-2-methylpropanoic acid was added at a range of concentrations (0.001-10 μM) and incubated for additional 48 hrs. At the end of compound treatment, 20 μl Alamar blue was added. After further 5-6 hr incubation at 37° C. the plates were read on a Spectramax Gemini reader (Molecular Devices; excitation 535 nm, emission 590 nm). Viability was calculated as percentage of DMSO vehicle control and synergy between various dose combinations of SGI-110 and (2S,3S)-3-(4-chlorophenyl)-3-[(1R)-1-(4-chlorophenyl)-7-fluoro-5-[(1S)-1-hydroxy-1-(oxan-4-yl)propyl]-1-methoxy-3-oxo-2,3-dihydro-1H-isoindol-2-yl]-2-methylpropanoic acid was identified based on the HAS Synergy Model.

ML-2 AML cell line = assay: Combination protocol for proliferation in dose matrix (Alamar blue), ML-2
Procedure: as §1, §2

MV-4-11 AML cell line = assay: Combination protocol for proliferation in dose matrix (Alamar blue), MV-4-11
Procedure: as §1, §2

[1] = SGI-110 0.003 μM + isoindolinone 0 μM
[2] = SGI-110 0.01 μM + isoindolinone 0 μM
[3] = SGI-110 0.03 μM + isoindolinone 0 μM
[4] = SGI-110 0.1 μM + isoindolinone 0 μM
[5] = SGI-110 0.3 μM + isoindolinone 0 μM
[6] = SGI-110 1 μM + isoindolinone 0 μM
[7] = SGI-110 3 μM + isoindolinone 0 μM

## Nc1ncn([C@H]2C[C@H](OP(=O)(O)OC[C@H]3O[C@@H](n4cnc5c(=O)[nH]c(N)nc54)C[C@@H]3O)[C@@H](CO)O2)c(=O)n1 [SGI-110, 2′-deoxy-5-azacytidylyl-(3′5′)-2′-deoxy-guanosine]
Molm-13 AML cell line; [1]
  Percentage viability relative to DMSO control: 96%
Molm-13 AML cell line; [2]
  Percentage viability relative to DMSO control: 84%
Molm-13 AML cell line; [3]
  Percentage viability relative to DMSO control: 72%
Molm-13 AML cell line; [4]
  Percentage viability relative to DMSO control: 53%
Molm-13 AML cell line; [5]
  Percentage viability relative to DMSO control: 39%
Molm-13 AML cell line; [6]
  Percentage viability relative to DMSO control: 31%
Molm-13 AML cell line; [7]
  Percentage viability relative to DMSO control: 22%
ML-2 AML cell line; [1]
  Percentage viability relative to DMSO control: 94%
ML-2 AML cell line; [2]
  Percentage viability relative to DMSO control: 92%
ML-2 AML cell line; [3]
  Percentage viability relative to DMSO control: 87%
ML-2 AML cell line; [4]
  Percentage viability relative to DMSO control: 78%
ML-2 AML cell line; [5]
  Percentage viability relative to DMSO control: 74%
ML-2 AML cell line; [6]
  Percentage viability relative to DMSO control: 61%
ML-2 AML cell line; [7]
  Percentage viability relative to DMSO control: 45%
MV-4-11 AML cell line; [1]
  Percentage viability relative to DMSO control: 92%
MV-4-11 AML cell line; [2]
  Percentage viability relative to DMSO control: 89%
MV-4-11 AML cell line; [3]
  Percentage viability relative to DMSO control: 89%
MV-4-11 AML cell line; [4]
  Percentage viability relative to DMSO control: 83%
MV-4-11 AML cell line; [5]
  Percentage viability relative to DMSO control: 76%
MV-4-11 AML cell line; [6]
  Percentage viability relative to DMSO control: 60%
MV-4-11 AML cell line; [7]
  Percentage viability relative to DMSO control: 50%
